Results on 1 molecule are retold here after BindingDB's records for doi:10.1073/pnas.88.17.7491 (Duke University, 1991).

Protein sequences, listed by entry. Tags and fused reporters are not part of them.
UniProt P21728, whole entry: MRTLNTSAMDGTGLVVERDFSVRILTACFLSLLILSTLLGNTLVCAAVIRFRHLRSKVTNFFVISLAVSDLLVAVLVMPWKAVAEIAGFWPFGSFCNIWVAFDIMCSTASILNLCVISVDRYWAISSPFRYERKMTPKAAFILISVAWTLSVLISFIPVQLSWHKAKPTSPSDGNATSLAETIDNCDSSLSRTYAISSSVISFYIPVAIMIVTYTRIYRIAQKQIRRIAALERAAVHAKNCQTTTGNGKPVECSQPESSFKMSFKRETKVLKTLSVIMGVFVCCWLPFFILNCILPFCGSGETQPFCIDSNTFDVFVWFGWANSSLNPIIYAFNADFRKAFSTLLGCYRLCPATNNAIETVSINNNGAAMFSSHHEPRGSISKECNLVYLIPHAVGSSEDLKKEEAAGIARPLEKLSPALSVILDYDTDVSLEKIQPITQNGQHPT

What is called Ki is a dissociation constant, usually derived from enzyme kinetics or from competition with a known ligand.

This experiment addresses D(1A) dopamine receptor (Homo sapiens, UniProt P21728).

In the case of `OCCN1CCN(CC/C=C2/c3ccccc3Sc3ccc(C(F)(F)F)cc32)CC1` [(cis) 2-{4-[3-(2-Trifluoromethyl-thioxanthen-9-ylidene)-propyl]-piperazin-1-yl}-ethanol(Flupentixol)], the Ki amounted to 4 nM.
